Source: ChEMBL document CHEMBL1136171, “Acetylenic TACE inhibitors. Part 1. SAR of the acyclic sulfonamide hydroxamates” (Bioorg Med Chem Lett, 2003)
pIC50: −log10 of the molar value.

By UniProt entry, the sequences of proteins in these tests, tags left out. Where a name states a change or a piece, a line headed by the entry shows the natural chain unless it says otherwise.
UniProt P78536: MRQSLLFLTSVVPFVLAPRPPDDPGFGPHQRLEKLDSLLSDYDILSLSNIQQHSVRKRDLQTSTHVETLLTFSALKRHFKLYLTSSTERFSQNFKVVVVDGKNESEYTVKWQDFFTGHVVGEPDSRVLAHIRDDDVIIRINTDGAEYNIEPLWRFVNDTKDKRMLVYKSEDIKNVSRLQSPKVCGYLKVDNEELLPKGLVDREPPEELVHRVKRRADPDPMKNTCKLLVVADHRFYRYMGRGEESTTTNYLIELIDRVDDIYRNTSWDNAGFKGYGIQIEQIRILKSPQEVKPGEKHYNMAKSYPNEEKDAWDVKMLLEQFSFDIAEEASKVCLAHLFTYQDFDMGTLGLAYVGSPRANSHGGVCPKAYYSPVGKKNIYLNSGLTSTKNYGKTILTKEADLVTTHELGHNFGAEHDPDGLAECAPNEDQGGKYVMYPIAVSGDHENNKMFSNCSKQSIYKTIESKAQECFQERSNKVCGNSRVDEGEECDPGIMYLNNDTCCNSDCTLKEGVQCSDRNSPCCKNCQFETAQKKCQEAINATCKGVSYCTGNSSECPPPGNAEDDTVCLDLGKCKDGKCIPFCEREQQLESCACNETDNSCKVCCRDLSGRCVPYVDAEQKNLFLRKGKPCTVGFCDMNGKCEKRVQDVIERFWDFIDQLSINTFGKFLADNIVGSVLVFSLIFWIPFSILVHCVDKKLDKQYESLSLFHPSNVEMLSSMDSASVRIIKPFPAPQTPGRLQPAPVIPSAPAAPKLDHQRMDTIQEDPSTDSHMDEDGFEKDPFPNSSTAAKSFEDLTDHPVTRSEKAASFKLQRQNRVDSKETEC

Assays:
[1] = target: Disintegrin and metalloproteinase domain-containing protein 17 (Homo sapiens, UniProt P78536); experiment: In vitro inhibition of tumor necrosis factor-alpha converting enzyme
Collagenase 3 = Collagenase 3 (Homo sapiens, UniProt P45452)
Interstitial collagenase = target: T1, Interstitial collagenase (Homo sapiens, UniProt P03956); experiment: In vitro inhibition of Matrix metalloprotein 1
T1 sequence (P03956 whole entry): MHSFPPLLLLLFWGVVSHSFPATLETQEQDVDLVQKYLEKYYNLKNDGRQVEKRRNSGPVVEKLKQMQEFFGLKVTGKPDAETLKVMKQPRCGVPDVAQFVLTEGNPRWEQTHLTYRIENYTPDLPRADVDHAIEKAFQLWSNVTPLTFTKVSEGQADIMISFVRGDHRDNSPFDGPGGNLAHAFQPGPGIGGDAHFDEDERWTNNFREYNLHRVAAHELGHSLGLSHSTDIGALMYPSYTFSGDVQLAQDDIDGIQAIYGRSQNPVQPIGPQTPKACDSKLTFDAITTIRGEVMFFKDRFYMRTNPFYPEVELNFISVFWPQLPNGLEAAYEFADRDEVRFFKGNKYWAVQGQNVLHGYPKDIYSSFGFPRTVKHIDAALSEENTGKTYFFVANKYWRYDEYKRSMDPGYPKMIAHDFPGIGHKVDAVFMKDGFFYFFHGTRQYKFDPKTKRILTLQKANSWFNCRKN

| SMILES | pIC50 (Collagenase 3) | also measured |
| --- | --- | --- |
| CC#CCOc1ccc(S(=O)(=O)N(C)C(CSCc2cccnc2)C(=O)NO)cc1 (centres undefined) | – | pIC50 [1]: 8.22 |
| CC#CCOc1ccc(S(=O)(=O)N[C@@H](C(=O)NO)c2ccc(OCCNC)cc2)cc1 | 6.84 | – |
| CC#CCOc1ccc(S(=O)(=O)N(C)C(C(=O)NO)C(C)(C)SCc2cccnc2)cc1 (centres undefined) | – | pIC50 (Interstitial collagenase): 8.05 |
| CC#CCOc1ccc(S(=O)(=O)N(C)[C@@H](C(=O)NO)c2ccc(OCCNC)cc2)cc1 | 7.57 | – |
